Molecular target: T1, δ opioid receptor (Rattus norvegicus, UniProt P33533)
T1 construct: Rat membrane synaptosome preparations (P2 fraction) were prepared as detailed previously; from tissue; host or cells: rat synaptosomal membranes (P2 fraction)
Assay: δ receptor binding, rat membrane synaptosomes, [3H]DPDPE
Settings: rat synaptosomes (P2), mean ± SEM
Procedure: Rat membrane synaptosome preparations (P2 fraction) were prepared as detailed previously, which included a preincubation step to reduce the presence of endogenous ligands and binding of G proteins (33,40). The δ and μ receptor sites were labeled with [^3 H]DPDPE (34.3 Ci/mmol) and [^3 H]DAGO (60.0 Ci/mmol), respectively, under equilibrium conditions (2 hr at 22°-23° C.). Samples were rapidly filtered through wetted glass fiber filters and thoroughly washed with 6 mL (3×2 mL) ice-cold 50 mM Tris-HCl, pH 7.5, containing 0.01-0.1% chicken egg albumin or bovine serum albumin. Each peptide was assayed in duplicate with 5-9 dosages using 3-4 synaptosomal preparations. The filters were dried at 70° C. and the radioactivity determined after an overnight incubation period in CytoScint to maximize the radioactivity detected and reduce variability between samples. The IC50 values were converted to affinity constants (Ki) according to Cheng and Prusoff (48).

Amino acid sequences for entries named in this document (tags omitted). A change or cut given only in a name is not applied to a line headed by its entry.
UniProt P33533, whole entry: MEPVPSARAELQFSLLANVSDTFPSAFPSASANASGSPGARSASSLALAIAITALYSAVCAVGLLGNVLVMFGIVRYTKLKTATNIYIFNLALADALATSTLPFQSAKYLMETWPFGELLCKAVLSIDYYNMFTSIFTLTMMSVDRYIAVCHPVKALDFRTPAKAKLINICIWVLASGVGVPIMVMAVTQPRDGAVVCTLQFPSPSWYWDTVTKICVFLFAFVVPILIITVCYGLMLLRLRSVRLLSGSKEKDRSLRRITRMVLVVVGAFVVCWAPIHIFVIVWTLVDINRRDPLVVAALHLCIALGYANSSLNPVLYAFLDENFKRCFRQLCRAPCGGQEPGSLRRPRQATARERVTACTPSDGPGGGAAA

Cc1cc(O)cc(C)c1C[C@H](N)C(=O)N1Cc2ccccc2C[C@@H]1C(=O)O [Peptide 3, Dmt-D-Tic-OH]
Ki: 13.5 ± 1.59 nM

From patent publication US5780589A, “Ultraselective opioidmimetic peptides and pharmacological and therapeutic uses thereof” (The United States of America as represented by the …, priority 1994, dated 1998)
